# Assay results reported in patent EP4834897A1, “COMPOUNDS WITH TWO AZAHETEROCYCLES SUBSTITUTED ISOINDOLINONE SKELETON AND USES THEREOF” (dated 2026).
# Sequences of proteins named here, by UniProt entry; tags and fusion partners are left off.
# UniProt Q96SW2, whole entry: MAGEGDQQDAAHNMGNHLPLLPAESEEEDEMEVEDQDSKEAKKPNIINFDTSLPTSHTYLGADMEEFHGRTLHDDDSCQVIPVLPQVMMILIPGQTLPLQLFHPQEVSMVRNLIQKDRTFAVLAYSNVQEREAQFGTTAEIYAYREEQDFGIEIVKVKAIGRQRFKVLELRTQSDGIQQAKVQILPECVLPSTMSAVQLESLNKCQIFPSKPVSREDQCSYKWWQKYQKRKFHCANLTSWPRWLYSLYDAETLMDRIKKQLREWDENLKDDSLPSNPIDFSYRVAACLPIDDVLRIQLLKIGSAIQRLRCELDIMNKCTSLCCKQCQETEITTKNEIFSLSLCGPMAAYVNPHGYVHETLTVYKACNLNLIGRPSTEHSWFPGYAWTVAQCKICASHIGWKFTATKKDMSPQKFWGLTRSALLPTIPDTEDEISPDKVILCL
# UniProt Q9UKS7, whole entry: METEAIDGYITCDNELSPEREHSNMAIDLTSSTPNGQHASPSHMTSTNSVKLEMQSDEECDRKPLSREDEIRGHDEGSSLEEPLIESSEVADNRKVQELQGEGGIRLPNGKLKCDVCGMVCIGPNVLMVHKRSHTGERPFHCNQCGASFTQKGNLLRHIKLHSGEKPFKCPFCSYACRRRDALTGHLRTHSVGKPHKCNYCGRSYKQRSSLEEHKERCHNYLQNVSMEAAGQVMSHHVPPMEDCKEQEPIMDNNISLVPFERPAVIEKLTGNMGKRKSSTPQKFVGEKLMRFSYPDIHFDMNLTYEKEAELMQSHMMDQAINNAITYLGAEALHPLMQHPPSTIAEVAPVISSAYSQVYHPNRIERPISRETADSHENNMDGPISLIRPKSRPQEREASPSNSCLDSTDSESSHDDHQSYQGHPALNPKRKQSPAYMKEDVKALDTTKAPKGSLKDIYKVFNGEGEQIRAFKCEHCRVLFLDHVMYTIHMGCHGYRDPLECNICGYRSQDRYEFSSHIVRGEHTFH
# UniProt Q9UKT9, whole entry: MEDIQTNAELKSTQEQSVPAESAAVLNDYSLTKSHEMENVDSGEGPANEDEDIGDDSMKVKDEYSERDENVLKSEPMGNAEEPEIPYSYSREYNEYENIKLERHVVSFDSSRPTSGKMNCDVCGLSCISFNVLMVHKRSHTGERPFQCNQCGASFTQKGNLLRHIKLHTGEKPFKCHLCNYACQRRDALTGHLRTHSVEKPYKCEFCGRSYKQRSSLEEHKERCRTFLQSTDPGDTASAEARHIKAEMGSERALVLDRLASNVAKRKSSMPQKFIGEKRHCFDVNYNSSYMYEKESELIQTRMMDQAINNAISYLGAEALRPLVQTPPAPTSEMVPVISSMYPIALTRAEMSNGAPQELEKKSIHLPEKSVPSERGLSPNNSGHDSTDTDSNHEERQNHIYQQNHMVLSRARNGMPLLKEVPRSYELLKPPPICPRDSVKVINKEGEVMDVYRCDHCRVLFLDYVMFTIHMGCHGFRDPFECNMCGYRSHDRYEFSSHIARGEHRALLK
# UniProt P48729, whole entry: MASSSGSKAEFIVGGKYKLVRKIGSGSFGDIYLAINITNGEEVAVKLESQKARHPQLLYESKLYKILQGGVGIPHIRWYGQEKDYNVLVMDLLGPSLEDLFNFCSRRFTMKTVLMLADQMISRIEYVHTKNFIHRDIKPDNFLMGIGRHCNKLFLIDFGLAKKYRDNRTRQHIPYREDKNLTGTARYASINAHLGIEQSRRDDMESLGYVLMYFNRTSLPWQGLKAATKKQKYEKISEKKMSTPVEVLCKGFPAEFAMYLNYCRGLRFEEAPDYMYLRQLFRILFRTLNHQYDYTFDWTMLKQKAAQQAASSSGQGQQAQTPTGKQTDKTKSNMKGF
# UniProt Q13422, whole entry: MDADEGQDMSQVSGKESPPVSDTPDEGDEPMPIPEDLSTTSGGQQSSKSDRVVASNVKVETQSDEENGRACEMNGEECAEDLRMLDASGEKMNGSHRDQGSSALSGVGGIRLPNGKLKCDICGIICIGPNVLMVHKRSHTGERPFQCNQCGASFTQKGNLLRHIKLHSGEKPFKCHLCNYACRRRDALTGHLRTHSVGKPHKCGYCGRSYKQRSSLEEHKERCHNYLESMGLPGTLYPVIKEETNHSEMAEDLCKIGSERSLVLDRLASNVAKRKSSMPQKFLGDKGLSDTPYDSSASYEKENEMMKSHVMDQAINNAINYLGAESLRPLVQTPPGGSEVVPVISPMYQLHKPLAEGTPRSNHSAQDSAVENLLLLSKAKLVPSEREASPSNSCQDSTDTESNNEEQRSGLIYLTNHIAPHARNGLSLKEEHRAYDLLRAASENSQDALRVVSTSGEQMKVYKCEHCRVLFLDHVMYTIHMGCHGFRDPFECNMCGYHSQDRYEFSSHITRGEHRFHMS
# UniProt P30291, whole entry: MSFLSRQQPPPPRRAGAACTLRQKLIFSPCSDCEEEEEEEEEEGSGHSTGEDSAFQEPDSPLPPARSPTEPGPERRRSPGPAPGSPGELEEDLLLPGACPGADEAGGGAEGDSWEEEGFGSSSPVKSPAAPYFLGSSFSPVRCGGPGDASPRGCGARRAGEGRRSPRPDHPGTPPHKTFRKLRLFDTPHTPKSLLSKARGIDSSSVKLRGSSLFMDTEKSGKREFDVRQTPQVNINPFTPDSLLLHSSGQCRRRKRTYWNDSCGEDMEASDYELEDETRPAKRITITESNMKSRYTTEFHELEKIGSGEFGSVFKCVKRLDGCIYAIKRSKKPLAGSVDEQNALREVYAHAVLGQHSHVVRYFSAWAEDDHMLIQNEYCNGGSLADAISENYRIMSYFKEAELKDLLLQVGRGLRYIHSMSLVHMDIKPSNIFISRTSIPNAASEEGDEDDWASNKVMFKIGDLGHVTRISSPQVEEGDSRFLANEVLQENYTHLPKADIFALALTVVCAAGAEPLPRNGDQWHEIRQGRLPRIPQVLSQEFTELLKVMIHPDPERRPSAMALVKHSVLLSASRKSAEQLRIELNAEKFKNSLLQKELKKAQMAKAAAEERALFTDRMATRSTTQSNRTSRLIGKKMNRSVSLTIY
# UniProt P15170, whole entry: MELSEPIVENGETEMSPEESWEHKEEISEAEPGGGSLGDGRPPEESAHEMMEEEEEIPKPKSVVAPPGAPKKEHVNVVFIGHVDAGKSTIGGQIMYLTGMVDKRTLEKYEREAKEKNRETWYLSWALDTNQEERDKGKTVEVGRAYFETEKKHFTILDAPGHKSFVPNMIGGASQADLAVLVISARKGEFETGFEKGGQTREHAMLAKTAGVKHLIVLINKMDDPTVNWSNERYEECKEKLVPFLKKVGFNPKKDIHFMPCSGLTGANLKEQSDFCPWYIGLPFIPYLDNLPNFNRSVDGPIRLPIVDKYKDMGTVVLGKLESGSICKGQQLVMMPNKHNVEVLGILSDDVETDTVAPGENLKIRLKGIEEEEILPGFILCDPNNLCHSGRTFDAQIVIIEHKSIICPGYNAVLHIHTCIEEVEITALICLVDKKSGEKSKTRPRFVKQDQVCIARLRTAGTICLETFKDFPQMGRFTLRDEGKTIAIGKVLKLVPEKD
# UniProt Q16531, whole entry partner: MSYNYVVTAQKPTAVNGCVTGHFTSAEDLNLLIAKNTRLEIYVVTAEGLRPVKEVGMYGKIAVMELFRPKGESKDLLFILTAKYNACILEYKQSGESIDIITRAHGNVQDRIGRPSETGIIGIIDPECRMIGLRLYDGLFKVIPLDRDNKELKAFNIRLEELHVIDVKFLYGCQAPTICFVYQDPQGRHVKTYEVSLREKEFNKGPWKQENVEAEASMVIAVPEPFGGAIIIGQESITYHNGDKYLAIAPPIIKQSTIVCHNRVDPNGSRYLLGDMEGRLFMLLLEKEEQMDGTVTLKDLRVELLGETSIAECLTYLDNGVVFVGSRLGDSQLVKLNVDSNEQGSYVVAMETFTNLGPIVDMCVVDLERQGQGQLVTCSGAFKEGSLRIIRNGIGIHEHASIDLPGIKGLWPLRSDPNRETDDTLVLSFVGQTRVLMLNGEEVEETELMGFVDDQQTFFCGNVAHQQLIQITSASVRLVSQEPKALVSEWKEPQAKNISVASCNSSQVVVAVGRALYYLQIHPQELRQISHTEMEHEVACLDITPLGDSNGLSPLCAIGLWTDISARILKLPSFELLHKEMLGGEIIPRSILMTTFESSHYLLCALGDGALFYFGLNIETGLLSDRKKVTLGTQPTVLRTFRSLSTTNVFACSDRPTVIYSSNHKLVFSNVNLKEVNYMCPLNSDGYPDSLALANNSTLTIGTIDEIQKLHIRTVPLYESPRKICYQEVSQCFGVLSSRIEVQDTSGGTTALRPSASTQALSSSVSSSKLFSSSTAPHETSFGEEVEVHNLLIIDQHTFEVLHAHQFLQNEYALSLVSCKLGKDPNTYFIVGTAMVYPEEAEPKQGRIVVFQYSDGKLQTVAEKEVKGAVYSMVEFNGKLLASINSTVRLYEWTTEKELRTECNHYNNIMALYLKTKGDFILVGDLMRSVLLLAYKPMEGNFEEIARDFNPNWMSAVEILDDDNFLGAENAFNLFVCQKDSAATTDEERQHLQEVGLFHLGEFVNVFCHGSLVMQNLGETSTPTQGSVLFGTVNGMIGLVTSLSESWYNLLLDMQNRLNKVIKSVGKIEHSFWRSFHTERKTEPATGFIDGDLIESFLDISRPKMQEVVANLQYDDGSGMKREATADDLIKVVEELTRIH
# Target: IKZF2 (Homo sapiens, UniProt Q96SW2+Q9UKS7)
# Assay: Western blot assay of substrate protein degradation in hPBMCs
# Conditions: 24 hours treatment, compounds at 50 nM and 500 nM (concentration behind the class not stated)
row,Compound,substrate protein remaining % (IKZF2)
1,O=C1CCC(N2Cc3cc(CN4CCC(N5CCN(C(c6ccccc6)c6ccccc6)CC5)CC4)cc(F)c3C2=O)C(=O)N1 (stereo not shown),A (0% ≤ substrate protein remaining % ≤ 80%)
2,O=C1CCC(N2Cc3ccc(CN4CCC(N5CCN(c6cccc(Cl)c6Cl)CC5)C(F)(F)C4)cc3C2=S)C(=O)N1 (stereo not shown),A (0% ≤ substrate protein remaining % ≤ 80%)
3,CC1(C)CCC(CN2CCN(C3CCN(Cc4cccc5c4CN(C4CCC(=O)NC4=O)C5=S)CC3(F)F)CC2)=C(c2ccc(Cl)cc2)C1 (stereo not shown),B (80%< substrate protein remaining %≤ 100%)
4,O=C1CCC(N2Cc3c(CN4CCC(N5CCN(c6cccc(Cl)c6Cl)CC5)CC4)cccc3C2=O)C(=O)N1 (stereo not shown),A (0% ≤ substrate protein remaining % ≤ 80%)
5,O=C1CCC(N2Cc3c(ccc(CN4CCC(N5CCN(C(c6ccccc6)c6ccccc6)CC5)CC4)c3F)C2=O)C(=O)N1 (stereo not shown),A (0% ≤ substrate protein remaining % ≤ 80%)

# Target: IKZF3 (Homo sapiens, UniProt Q96SW2+Q9UKT9)
# Assay: as above
# Conditions: 24 hours treatment, compounds at 50 nM and 500 nM (concentration behind the class not stated)
row,Compound,substrate protein remaining % (IKZF3)
1,O=C1CCC(N2Cc3cc(CN4CCC(N5CCN(C(c6ccccc6)c6ccccc6)CC5)CC4)cc(F)c3C2=O)C(=O)N1 (stereo not shown),A (0% ≤ substrate protein remaining % ≤ 80%)
2,O=C1CCC(N2Cc3ccc(CN4CCC(N5CCN(c6cccc(Cl)c6Cl)CC5)C(F)(F)C4)cc3C2=S)C(=O)N1 (stereo not shown),B (80%< substrate protein remaining %≤ 100%)
3,CC1(C)CCC(CN2CCN(C3CCN(Cc4cccc5c4CN(C4CCC(=O)NC4=O)C5=S)CC3(F)F)CC2)=C(c2ccc(Cl)cc2)C1 (stereo not shown),B (80%< substrate protein remaining %≤ 100%)
4,O=C1CCC(N2Cc3c(CN4CCC(N5CCN(c6cccc(Cl)c6Cl)CC5)CC4)cccc3C2=O)C(=O)N1 (stereo not shown),B (80%< substrate protein remaining %≤ 100%)
5,O=C1CCC(N2Cc3c(ccc(CN4CCC(N5CCN(C(c6ccccc6)c6ccccc6)CC5)CC4)c3F)C2=O)C(=O)N1 (stereo not shown),A (0% ≤ substrate protein remaining % ≤ 80%)

# Target: CK1α (Homo sapiens, UniProt P48729+Q96SW2)
# Assay: as above
# Conditions: 24 hours treatment, compounds at 50 nM and 500 nM (concentration behind the class not stated)
row,Compound,substrate protein remaining % (CK1a)
1,O=C1CCC(N2Cc3cc(CN4CCC(N5CCN(C(c6ccccc6)c6ccccc6)CC5)CC4)cc(F)c3C2=O)C(=O)N1 (stereo not shown),B (80%< substrate protein remaining %≤ 100%)
2,O=C1CCC(N2Cc3ccc(CN4CCC(N5CCN(c6cccc(Cl)c6Cl)CC5)C(F)(F)C4)cc3C2=S)C(=O)N1 (stereo not shown),B (80%< substrate protein remaining %≤ 100%)
3,CC1(C)CCC(CN2CCN(C3CCN(Cc4cccc5c4CN(C4CCC(=O)NC4=O)C5=S)CC3(F)F)CC2)=C(c2ccc(Cl)cc2)C1 (stereo not shown),B (80%< substrate protein remaining %≤ 100%)
4,O=C1CCC(N2Cc3c(CN4CCC(N5CCN(c6cccc(Cl)c6Cl)CC5)CC4)cccc3C2=O)C(=O)N1 (stereo not shown),B (80%< substrate protein remaining %≤ 100%)
5,O=C1CCC(N2Cc3c(ccc(CN4CCC(N5CCN(C(c6ccccc6)c6ccccc6)CC5)CC4)c3F)C2=O)C(=O)N1 (stereo not shown),A (0% ≤ substrate protein remaining % ≤ 80%)

# Target: IKZF1 (Homo sapiens, UniProt Q13422+Q96SW2)
# Assay: as above
# Conditions: 24 hours treatment, compounds at 50 nM and 500 nM (concentration behind the class not stated)
row,Compound,substrate protein remaining % (IKZF 1)
1,O=C1CCC(N2Cc3cc(CN4CCC(N5CCN(C(c6ccccc6)c6ccccc6)CC5)CC4)cc(F)c3C2=O)C(=O)N1 (stereo not shown),B (80%< substrate protein remaining %≤ 100%)
2,O=C1CCC(N2Cc3ccc(CN4CCC(N5CCN(c6cccc(Cl)c6Cl)CC5)C(F)(F)C4)cc3C2=S)C(=O)N1 (stereo not shown),B (80%< substrate protein remaining %≤ 100%)
3,CC1(C)CCC(CN2CCN(C3CCN(Cc4cccc5c4CN(C4CCC(=O)NC4=O)C5=S)CC3(F)F)CC2)=C(c2ccc(Cl)cc2)C1 (stereo not shown),B (80%< substrate protein remaining %≤ 100%)
4,O=C1CCC(N2Cc3c(CN4CCC(N5CCN(c6cccc(Cl)c6Cl)CC5)CC4)cccc3C2=O)C(=O)N1 (stereo not shown),A (0% ≤ substrate protein remaining % ≤ 80%)
5,O=C1CCC(N2Cc3c(ccc(CN4CCC(N5CCN(C(c6ccccc6)c6ccccc6)CC5)CC4)c3F)C2=O)C(=O)N1 (stereo not shown),B (80%< substrate protein remaining %≤ 100%)

# Target: WEE1 (Homo sapiens, UniProt P30291+Q96SW2)
# Assay: as above
# Conditions: 24 hours treatment, compounds at 50 nM and 500 nM (concentration behind the class not stated)
row,Compound,substrate protein remaining % (WEE1)
1,O=C1CCC(N2Cc3cc(CN4CCC(N5CCN(C(c6ccccc6)c6ccccc6)CC5)CC4)cc(F)c3C2=O)C(=O)N1 (stereo not shown),B (80%< substrate protein remaining %≤ 100%)
2,O=C1CCC(N2Cc3ccc(CN4CCC(N5CCN(c6cccc(Cl)c6Cl)CC5)C(F)(F)C4)cc3C2=S)C(=O)N1 (stereo not shown),B (80%< substrate protein remaining %≤ 100%)
3,CC1(C)CCC(CN2CCN(C3CCN(Cc4cccc5c4CN(C4CCC(=O)NC4=O)C5=S)CC3(F)F)CC2)=C(c2ccc(Cl)cc2)C1 (stereo not shown),A (0% ≤ substrate protein remaining % ≤ 80%)
4,O=C1CCC(N2Cc3c(CN4CCC(N5CCN(c6cccc(Cl)c6Cl)CC5)CC4)cccc3C2=O)C(=O)N1 (stereo not shown),B (80%< substrate protein remaining %≤ 100%)
5,O=C1CCC(N2Cc3c(ccc(CN4CCC(N5CCN(C(c6ccccc6)c6ccccc6)CC5)CC4)c3F)C2=O)C(=O)N1 (stereo not shown),B (80%< substrate protein remaining %≤ 100%)

# Target: GSPT1 (Homo sapiens, UniProt P15170+Q96SW2)
# Assay: as above
# Conditions: 24 hours treatment, compounds at 50 nM and 500 nM (concentration behind the class not stated)
row,Compound,substrate protein remaining % (GSPT1)
1,O=C1CCC(N2Cc3cc(CN4CCC(N5CCN(C(c6ccccc6)c6ccccc6)CC5)CC4)cc(F)c3C2=O)C(=O)N1 (stereo not shown),A (0% ≤ substrate protein remaining % ≤ 80%)
2,O=C1CCC(N2Cc3ccc(CN4CCC(N5CCN(c6cccc(Cl)c6Cl)CC5)C(F)(F)C4)cc3C2=S)C(=O)N1 (stereo not shown),B (80%< substrate protein remaining %≤ 100%)
3,CC1(C)CCC(CN2CCN(C3CCN(Cc4cccc5c4CN(C4CCC(=O)NC4=O)C5=S)CC3(F)F)CC2)=C(c2ccc(Cl)cc2)C1 (stereo not shown),A (0% ≤ substrate protein remaining % ≤ 80%)
4,O=C1CCC(N2Cc3c(CN4CCC(N5CCN(c6cccc(Cl)c6Cl)CC5)CC4)cccc3C2=O)C(=O)N1 (stereo not shown),A (0% ≤ substrate protein remaining % ≤ 80%)
5,O=C1CCC(N2Cc3c(ccc(CN4CCC(N5CCN(C(c6ccccc6)c6ccccc6)CC5)CC4)c3F)C2=O)C(=O)N1 (stereo not shown),A (0% ≤ substrate protein remaining % ≤ 80%)

# Target: CRBN (Homo sapiens, UniProt Q96SW2)
# Assay: CRBN binding affinity by HTRF (CEREBLON BINDING kit)
# Conditions: CRBN binding, HTRF, compound at 0.5 µM
row,Compound,Inhibition Rate at 0.5 µM (%)
1,O=C1CCC(N2Cc3ccc(CN4CCC(N5CCN(c6cccc(Cl)c6Cl)CC5)C(F)(F)C4)cc3C2=S)C(=O)N1 (stereo not shown),a3 (30% < a3 ≤ 40%)
2,CC1(C)CCC(CN2CCN(C3CCN(Cc4cccc5c4CN(C4CCC(=O)NC4=O)C5=S)CC3(F)F)CC2)=C(c2ccc(Cl)cc2)C1 (stereo not shown),a3 (30% < a3 ≤ 40%)

# Same assay, conditions: CRBN binding, HTRF, compound at 2 µM
row,Compound,Inhibition Rate at 2 µM (%)
1,O=C1CCC(N2Cc3ccc(CN4CCC(N5CCN(c6cccc(Cl)c6Cl)CC5)C(F)(F)C4)cc3C2=S)C(=O)N1 (stereo not shown),a6 (60% < a6 ≤ 70%)
2,CC1(C)CCC(CN2CCN(C3CCN(Cc4cccc5c4CN(C4CCC(=O)NC4=O)C5=S)CC3(F)F)CC2)=C(c2ccc(Cl)cc2)C1 (stereo not shown),a6 (60% < a6 ≤ 70%)

# Same assay, conditions: read-out: HTRF IC50; human Cereblon WT GST-tagged protein; 3 hours at room temperature
row,Compound,IC50 [nM]
1,O=C1CCC(N2Cc3cc(CN4CCC(N5CCN(C(c6ccccc6)c6ccccc6)CC5)CC4)cc(F)c3C2=O)C(=O)N1 (stereo not shown),500 to 1000
2,O=C1CCC(N2Cc3c(CN4CCC(N5CCN(c6cccc(Cl)c6Cl)CC5)CC4)cccc3C2=O)C(=O)N1 (stereo not shown),1000 to 1500
3,O=C1CCC(N2Cc3c(ccc(CN4CCC(N5CCN(C(c6ccccc6)c6ccccc6)CC5)CC4)c3F)C2=O)C(=O)N1 (stereo not shown),500 to 1000
